## Melting point values, as collected for the OPERA models

From the experimental data distributed with OPERA 2.9.

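OPERA's authors assembled the values from existing databases and did not measure them anew. One number stands for a compound and property, with no spread given. Method, purity and exact conditions of the single measurements are not given. The measured form (salt, isomer or mixture) is not always the one drawn. Some entries may be limits or estimates that an upstream database listed as plain numbers.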

The melting point is given in degrees Celsius.
"via" names the databases from which the curators took the value.

Cc1sc2ncnc(SCC(=O)O)c2c1C has MP 216 °C (via OCHEM).
CN(C)Cc1cccc(N)c1 [3-Amino-N,N-dimethylbenzylamine] has MP 41 °C (via OCHEM).
CC(CC(N)=O)n1nc2ccccc2n1 (stereo unspecified) [3-(2H-Benzotriazol-2-yl)butanamide] has MP 152 °C (via OCHEM).
COc1ccc(OCC(=O)NN)cc1 [2-(4-methoxyphenoxy)acetohydrazide] has MP 143 °C (via OCHEM).
Cc1cc(C#N)c(Nc2ccccc2[N+](=O)[O-])s1 [5-Methyl-2-((2-nitrophenyl)amino)-3-thiophenecarbonitrile] has MP 110 °C (via eChemPortal).
CCCCCCCCCCCCSC(C)CC(=O)[C@@H]1[C@@H](C)C=CCC1(C)C (relative stereo) has MP 19 °C (via eChemPortal).
Cc1cccc(C)c1NC(=O)CCCCl [4-Chloro-N-(2,6-dimethylphenyl)butanamide] has MP 105 °C (via OCHEM).
CC(C)c1ccc(C#N)cc1 [4-Isopropylbenzonitrile] has MP -60.5 °C (via eChemPortal).
C/C=C/C(=O)C1CCC(C)(C)C=C1C (stereo partly drawn) [(E)-1-(2,4,4-Trimethyl-2-cyclohexen-1-yl)-2-buten-1-one] has MP -83.2 °C (via eChemPortal).
O=C(O)C#Cc1cccc(Cl)c1 [3-(3-Chlorophenyl)-2-propynoic acid] has MP 144.7 °C (via PubChem).
CCN(CC[N+](C)(C)CC(C)O)c1ccc(/N=N/c2ccc([N+](=O)[O-])cc2Cl)cc1.[Cl-] (stereo partly drawn) has MP 187.5 °C (via eChemPortal).
Nc1ccc2[nH]c(=O)c(=O)[nH]c2c1 [Quinoxaline-6-amine, 2,3-dihydro-] has MP 353 °C (via OCHEM).
COC(=O)C(N)c1ccc(O)cc1 (stereo unspecified) [Methyl amino(4-hydroxyphenyl)acetate] has MP 177.3 °C (via eChemPortal).
COc1ccccc1NC(=O)C(N=Nc1ccc(-c2ccc(N=NC(C(C)=O)C(=O)Nc3ccccc3OC)c(Cl)c2)cc1Cl)C(C)=O (stereo unspecified) [C.I. Pigment Yellow 17] has MP 323 °C (via eChemPortal).
COc1ccc(S(=O)(=O)c2coc(S(N)(=O)=O)c2)cc1 [4-(4-Methoxybenzene-1-sulfonyl)furan-2-sulfonamide] has MP 118 °C (via OCHEM).
O=Cc1ccc(OCCCC(F)(F)C(F)(F)C(F)(F)C(F)(F)C(F)(F)C(F)(F)C(F)(F)C(F)(F)F)cc1 [4-[3-(Perfluorooctyl)-1-propyloxy]benzaldehyde] has MP 62 °C (via ChemicalBook).
CO[C@H]1C[C@H](O[C@H]2[C@H](C)O[C@@H](O[C@@H]3C(C)=CC[C@@H]4C[C@@H](C[C@]5(CC[C@H](C)[C@@H](C6CCCCC6)O5)O4)OC(=O)[C@@H]4C=C(C)[C@@H](O)[C@H]5OCC(=CC=C[C@@H]3C)[C@]54O)C[C@@H]2OC)O[C@@H](C)[C@@H]1O has MP 208.7 °C (via eChemPortal).
COc1ccc(S(=O)(=O)Cl)cc1F [3-fluoro-4-methoxybenzenesulfonyl chloride] has MP 78.5 °C (via OCHEM).
O=[N+]([O-])c1cc(S(=O)(=O)Cl)ccc1O [4-Hydroxy-3-nitrobenzenesulfonyl chloride] has MP 53 °C (via OCHEM).
CCCCCCCCCCCCCCCCCCOC(=O)CC[C@H](NC(=O)CCCCCCCCCCC)C(=O)OCCCCCCCCCCCCCCCCCC [Distearyl lauroyl glutamate] has MP 72.3 °C (via eChemPortal).
C=COCCCN [Aminopropylvinylether] has MP -57 °C (via eChemPortal).
O=C(O)COc1cccc(Br)c1 [(3-bromophenoxy)acetic acid] has MP 109 °C (via OCHEM).
CC(C)C(=O)/C(=C/c1ccccc1)C(=O)Nc1ccccc1 [(2Z)-2-Benzylidene-4-methyl-3-oxo-N-phenylpentanamide] has MP 139.8 °C (via eChemPortal).
CCOCC1CCC(COCC)CC1 (stereo unspecified) [1,4-Bis(ethoxymethyl)cyclohexane] has MP 10 °C (via eChemPortal).
CC(c1ccccc1)c1ccc(O)cc1O (stereo unspecified) [4-(1-Phenylethyl)benzene-1,3-diol] has MP 79 °C (via eChemPortal).
O=CC1CCCSC1 (stereo unspecified) [TETRAHYDROTHIOPYRAN-3-CARBOXALDEHYDE] has MP -47 °C (via eChemPortal).
CCOc1ncc(C)c2c1C(c1ccc(C#N)cc1OC)C(C(=O)O)=C(C)N2 (stereo unspecified) has MP 157.6 °C (via eChemPortal).
O=C(O)C1=Nc2cccc3cccc(c23)N1 [1H-perimidine-2-carboxylic acid] has MP 211 °C (via OCHEM).
N=C(NO)C12CC3CC(CC(C3)C1)C2 [N-Hydroxyadamantane-1-carboximidamide] has MP 153 °C (via OCHEM).
O=C(O)CCc1ccsc1 [3-thien-3-ylpropanoic acid] has MP 56 °C (via OCHEM).
Cc1ncc([N+](=O)[O-])cc1C(=O)O [2-methyl-5-nitronicotinic acid] has MP 212 °C (via OCHEM).
CCCCc1ccc(Br)cc1 [1-Bromo-4-butylbenzene] has MP -26 °C (via eChemPortal).
O=C(O)c1ccc(NC(=O)c2cc(Cl)cc(Cl)c2)cc1 [4-(3,5-Dichlorobenzamido)benzoic acid] has MP 306 °C (via OCHEM).
Fc1ccc(C(CCCCl)c2ccc(F)cc2)cc1 [1,1'-(4-Chlorobutylidene)bis(4-fluorobenzene)] has MP 5 °C (via eChemPortal).
Nc1nc2ccc(S(N)(=O)=O)cc2s1 [2-Amino-1,3-benzothiazole-6-sulfonamide] has MP 260 °C (via OCHEM).
CCOC(=O)C(C#N)C(C)=O (stereo unspecified) [Ethyl 2-cyano-3-oxobutanoate] has MP 16.1 °C (via eChemPortal).
CCn1c(=O)[nH]c2ccccc21 [1-Ethyl-2-benzimidazolinone] has MP 122 °C (via OCHEM).
Cc1ccc(C)c(-c2nc(N)sc2C)c1 [4-(2,5-dimethylphenyl)-5-methyl-1,3-thiazol-2-amine] has MP 93 °C (via OCHEM).
CCCCCCCCC(CCCCCC)COc1ccccc1C(N)=O (stereo unspecified) [2-[(2-Hexyldecyl)oxy]benzamide] has MP 63 °C (via eChemPortal).
N=C1CCCN1Cc1[nH]c(=O)[nH]c(=O)c1Cl has MP 245 °C (via PubChem).
CCNC(=O)CCCl [3-chloro-N-ethylpropanamide] has MP 65 °C (via OCHEM).
CCCc1ccc(OC)cc1 [4-Propylanisole] has MP -15 °C (via eChemPortal).
Cc1ccc(C(=O)Nc2ccccc2N)cc1 [N-(2-aminophenyl)-4-methylbenzamide] has MP 155 °C (via OCHEM).
CCCCCCCC(=O)N(C)C [N,N-Dimethyloctanamide] has MP -25.5 °C (via eChemPortal).
CC(=O)CCCC(C)CCCC(C)CCCC(C)C (stereo unspecified) [2-pentadecanone, 6,10,14-trimethyl-] has MP -78 °C (via eChemPortal).
CC(C)NS(=O)(=O)c1cccc(CN)c1 [3-(Aminomethyl)-N-(propan-2-yl)benzene-1-sulfonamide] has MP 99 °C (via OCHEM).
O=S(=O)(c1ccc(Cl)cc1)N1CCNCC1 [1-[(4-chlorophenyl)sulfonyl]piperazine] has MP 101 °C (via OCHEM).
Cc1cc(C)c2c(c1)NC(=O)C2=O [4,6-dimethyl-1H-indole-2,3-dione] has MP 234 °C (via OCHEM).
Fc1ccccc1Nc1n[nH]c(=S)s1 [5-(2-Fluoroanilino)-1,3,4-thiadiazole-2(3H)-thione] has MP 171 °C (via OCHEM).
CC(C)(C)c1ccc(C(=O)CC#N)cc1 [3-(4-tert-butylphenyl)-3-oxopropanenitrile] has MP 79 °C (via OCHEM).

The last 3 entries again:

Listed for Cc1cc(C)c2c(c1)NC(=O)C2=O [4,6-dimethyl-1H-indole-2,3-dione]: MP 234 °C (via OCHEM).
Listed for Fc1ccccc1Nc1n[nH]c(=S)s1 [5-(2-Fluoroanilino)-1,3,4-thiadiazole-2(3H)-thione]: MP 171 °C (via OCHEM).
Listed for CC(C)(C)c1ccc(C(=O)CC#N)cc1 [3-(4-tert-butylphenyl)-3-oxopropanenitrile]: MP 79 °C (via OCHEM).